Ab-91 heavy chain CDR variants: yeast mating affinities

Data: MIT Lincoln Laboratory AlphaSeq set, Engelhart et al. 2022, doi:10.1038/s41597-022-01779-4, as distributed in FLAb.

Target: peptide PDVDLGDISGINAS, taken from heptad repeat 2 (HR2) of SARS-CoV-2 spike.

Parent: Ab-91, a human scFv built as VL, a (GGGGS)3 linker, VH. Only the CDRs of the heavy chain vary.
VL: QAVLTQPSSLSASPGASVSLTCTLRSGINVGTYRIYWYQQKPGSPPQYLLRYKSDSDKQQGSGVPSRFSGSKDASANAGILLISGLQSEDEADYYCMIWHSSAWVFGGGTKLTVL
VH: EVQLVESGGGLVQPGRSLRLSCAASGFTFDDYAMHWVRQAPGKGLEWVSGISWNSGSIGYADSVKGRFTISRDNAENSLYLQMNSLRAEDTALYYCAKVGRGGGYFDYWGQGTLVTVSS

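Phage display of a naive human antibody library on the peptide gave the parent. The library (AAYL51) carries one to three amino acid substitutions per variant, with no insertions or deletions. AlphaSeq pools MATa yeast showing the antibodies with MATalpha yeast showing the peptide. Mating (16 h, 30 °C) was followed by selection of diploids and sequencing of their barcodes. A regression on co-assayed BCL2-family reference pairs converts the normalised counts of each replicate to an apparent Kd. Mating was done three times.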

The parent's heavy chain CDRs are GFTFDDYAMH, GISWNSGSIGYADSVK, VGRGGGYFDY; each variant's own CDRs replace them letter for letter.
All variants listed here change D107 of the VH, counted from its first residue.
Kd is apparent (estimated from mating counts) and averaged on the log scale over replicates with a signal. Smaller is tighter.
"no signal" marks a missing value. The strain was present, yet no cells mated with the target were sequenced in any replicate, which points to weak or no binding.
Parent in this assay: reference entry 72 nM, copy in this library 7.5 nM.

The variant GFTFDDYAMH | CHSWNSGSIGYADSVK | VGRGGGYFAY gave no signal (0 of 3 replicates; controls 0 of 9). For GFTGDDYSMH | GISWNSGSIGYADSVK | VGRGGGYFCY, the assay gave 17 µM (2 of 3 replicates; controls 6 of 9). The variant GFTFDDYAMH | GISQNSGIIGYADSVK | VGRGGGYFHY gave no signal (0 of 3 replicates; controls 2 of 9). With GFTFDDYHMH | GISWNSGSIGYADSVK | SGRGGGYFAY the result was no signal (0 of 3 replicates; controls 0 of 9). The variant GFTFDFYAMH | GISHNSGSIGYADSVK | VGRGGGYFCY showed 3.2 nM (3 of 3 replicates; controls 1 of 9). For GFTFDDYAMH | HISWNSGSIGYADSVK | VGRGGGYFPY, the assay gave no signal (0 of 3 replicates; controls 1 of 9).

The variant GLTFDDYAVH | GISWNSGSIGYADSVK | VGRGGGYFHY showed no signal (0 of 3 replicates; controls 0 of 9). The variant GFTFDDYAMG | GNSWNSGSIGYADSVK | VGRGGGYFYY showed 6.7 µM (2 of 3 replicates; controls 5 of 9). For GFTFDDYAMH | GISWNSGSIGYAHSVR | VGRGGGYFIY, the assay gave 9.0 µM (1 of 3 replicates; controls 3 of 9). For GHTFDLYAMH | GISWNSGSIGYADSVK | VGRGGGYFYY, the assay gave 44 µM (3 of 3 replicates; controls 1 of 9). The variant GFAFDDYAMH | GISWNSGSIGYADSVK | VGRGGGPFPY showed no signal (0 of 3 replicates; controls 1 of 9). With GFTDDDYAMH | GISWLSGSIGYADSVK | VGRGGGYFVY the result was 180 µM (2 of 3 replicates; controls 5 of 9).

For GFTFDDYAMH | GISSNSGSIGYWDSVK | VGRGGGYFEY, the assay gave 540 nM (2 of 3 replicates; controls 0 of 9). With GFTFDHYAMQ | GISWNSGSIGYADSVK | VGRGGGYFSY the result was 1.1 mM (2 of 3 replicates; controls 4 of 9). For GFTFDDYAMH | GISWLSGSIGYADSVK | VGRAGGYFCY, the assay gave no signal (0 of 3 replicates; controls 0 of 9). The variant GFTADDYAMH | GISWNSGSIGYLDSVK | VGRGGGYFFY showed no signal (0 of 3 replicates; controls 1 of 9). The variant GFTFDNYAMH | GISWGSGSIGYADSVK | VGRGGGYFNY showed no signal (0 of 3 replicates; controls 0 of 9). The variant GFIFDDTAMH | GISWNSGSIGYADSVK | VGRGGGYFWY gave 14 nM (3 of 3 replicates; controls 4 of 9).

For GFTFDDYAMH | GISWNDGSIGYADSVK | VGRGGGYGTY, the assay gave no signal (0 of 3 replicates; controls 0 of 9). With GFTADDYAMH | GISWNSGSIGYADSVK | VGRGGGYFAY the result was 4.1 µM (1 of 3 replicates; controls 2 of 9). The variant GFTFDDYAMQ | GISWNRGSIGYADSVK | VGRGGGYFVY gave 44 µM (2 of 3 replicates; controls 2 of 9).

Extract of 2 entries:

CDR-H1,CDR-H2,CDR-H3,apparent Kd,replicates with signal,signal with controls
GFTFDDYAMH,CHSWNSGSIGYADSVK,VGRGGGYFAY,no signal,0 of 3,0 of 9
GFTDDDYAMH,GISWLSGSIGYADSVK,VGRGGGYFVY,180 µM,2 of 3,5 of 9

Background: pairings of library AAYL51 with three empty control strains gave a value in 21% of cases (median 34 µM, 5th percentile 1.8 µM). Values in that range, when seen in few replicates, are hard to tell from nonspecific mating. For each scFv, signals with the empty controls are counted beside the result.